Measurements: patent US9145449B2, “STIP1 polypeptides and uses thereof” (Chang Gung Memorial Hospital, Linkou Branch, priority 2013, dated 2015)

What was measured:
[1] = system: ovarian cancer cells (MDAH2774); assay: MTT cell viability of transfected MDAH2774 cells; type: cell-based, human
Text: Human ovarian cancer cell lines TOV112D, TOV21G, SKOV3, MDAH2774, ES2, MDAH2774, BG1; human endometrial cancer cell line RL95-2, human pancreatic cancer cell line BxPC3, breast cancer cell line (MCF7) and colon cancer cell line (HT29) were obtained from ATCC (Rockville, Md., USA). Lung cancer cell line CL1-0 and nasopharyngeal carcinoma cell line NPC-BM1 were obtained from Dr. C C Wu (Department of Medical Biotechnology and Laboratory Science, Chang-Gung University, Taoyuan, Taiwan), Wu et al. Mol. Cell Proteomics 9(6):11100 (20101). Mouse ovarian cancer cell line MOSEC was obtained from Dr. C L Chang (Department of Obstetrics and Gynecology, Mackay Memorial Hospital, Taipei, Taiwan), Chang et al. Cancer Research 67:10047 (2007). TOV112D, TOV21G, SKOV3, MDAH2774, ES2 and RL95-2 were cultured in Dulbecco's modified Eagle's medium/F-12 supplemented with 10% fetal bovine serum and antibiotics at 37° C. in 5% CO2 humidified atmosphere. BxPC3, CL1-0, NPC-BM1 and MOSEC cells were cultured in RPMI 1640 media supplemented with 10% fetal bovine serum.
Cancer cells were transfected with an STIP1 antibody in PLUSin reagent (Polyplus-transfection Inc., NY, USA) according to manufacturer's protocol. In summary, 2×10^3˜6×10^3 cancer cells were seeded in a 96-well plate overnight, followed by PBS rinse and the addition of 180 μl of OPTI-MEM. 0.6 μg of mouse STIP1 antibody were diluted in 20 mM HEPES, mixed with 1.2 μl of PLUSin by vortexing, followed by incubation at room temperature for 15 min. The antibody/PLUSin mixture was added to the cancer cells by gentle swirling the plate. The STIP1 antibody and the control IgG used in the working examples described herein are commercially available from Abnova Biotechnology Inc., (Taipei City, Taiwan). The STIP1 antibody in the working examples described herein can be used to detect recombinant full length STIP1 (SEQ ID NO:3).
1˜2×10^4 Cancer cells were plated per well in 96-well plates overnight, then transfected with a mouse STIP1 antibody (commercially available from Abnova Biotechnology Inc.) for 48 h before they were assessed. The inhibitory effect of the STIP1 antibody on the cancer cells was measured by the MTT [3-(4,5-Dimethylthiazol-2-yl)-2,5-Diphenyltetrazolium Bromide]method (Sigma St. Louis, Mo.). The optical density was measured at 570 nm using an automated scanning multiwell spectrophotometer (Wallac Victor2 spectrophotometer; PerkinElmer, Boston, Mass., USA).
Given the neutralizing effect of STIP1 polypeptide 520-543 (SEQ ID NO:1) on STIP1 antibody, co-transfecting STIP1 antibody and STIP1 polypeptide 520-543 in cancer cells may reduce the suppression effect of STIP1 antibody. FIG. 10A and Table 1 show cell viability of ovarian cancer cells (MDAH2774) transfected with STIP1 antibody only (positive control) and STIP1 antibody with various concentrations of STIP1 polypeptide 520-543. Cell viability was evaluated using MTT assays. […] For example, the cell viability for STIP1 antibody was 78.81% (Table 1), the cell viability for 25 uM of STIP1 polypeptide 520-543 was 102% (Table 2), and the cell viability for STIP1 antibody and […] of STIP1 polypeptide 520-543 was 56.38% (Table 1). Similarly, the cell viability for 200 uM of STIP1 polypeptide 520-543 was 28.64% (Table 2), and the cell viability for STIP1 antibody and […] of STIP1 polypeptide 520-543 was 27.67% (Table 1).

STIP1 antibody = assay: Dot blot of STIP1 polypeptides incubated with STIP1 antibody (FIG. 9A); type: binding; conditions: dot blot on nylon membrane, rank among STIP1 polypeptides
Protocol: In FIG. 9A, the following STIP1 polypeptides were dot blotted on a nylon membrane and incubated with an STIP1 antibody: STIP1 polypeptides with amino acid (a.a.) sequence number 445-469, 458-482, 470-494, 482-506 (SEQ ID NO:2), 495-519, 507-531, and 520-543 (SEQ ID NO:1). The entire rhSTIP1 (a.a. sequence number 1 to 543) was used as positive control (the left lane).

[2] = system: binding of STIP1 antibody to rhSTIP1; assay: Dot blot neutralization of STIP1 antibody binding to rhSTIP1 (FIG. 9B); conditions: antibody/polypeptide concentration ratios from 1:1 to 1:8
Protocol: The entire rhSTIP1 at different concentrations were dot blotted on a nylon membrane, and incubated with STIP1 antibody. The STIP1 antibody was pre-incubated with STIP1 polypeptide 520-543 (SEQ ID NO:1), at various antibody/polypeptide concentration ratios (from 1:1 to 1:8).

[3] = system: HSP90 and STIP1 interaction; assay: HSP90-STIP1 interaction by immunoprecipitation (FIG. 12); type: cell-based; conditions: various concentrations of peptide
Protocol: The effect of STIP1 polypeptide 520-543 on HSP90 and STIP1 interaction was evaluated by treating cancer cells with various concentrations of STIP1 polypeptide 520-543. HSP90-STIP1 interaction with evaluated using immunoprecipitation method.

[4] = system: human ovarian cancer cells MDAH2774; assay: In vivo MDAH2774 subcutaneous tumor in nude mice (FIG. 14); conditions: 100 μg three times a week via the tail vein, versus control group
Protocol: Nude mice were inoculated with 5×10^5 cells of human ovarian cancer cells MDAH2774 subcutaneously. 100 μg of STIP1 polypeptide 520-543 was administered three times a week via the tail vein.

JAK2 = assay: Western blot of JAK2 protein in cancer cells (FIG. 15A, 15B); type: cell-based
Protocol: (§1) Cell lysates were prepared with a RIPA buffer (150 mM NaCl, 20 mM Tris-Cl pH7.5, 1% Triton X-100, 1% NP40, 0.1% SDS, 0.5% deoxycholate) containing freshly added proteinase and phosphatase inhibitors (Bionovas, Toronto). Protein concentration was measured using the Bradford method. Fifty μg of each sample was electrophoresed in 10% SDS-polyacrylamide gels, and transferred to nitrocellulose membranes. STIP1 antibody was commercially available from Abnova Biotechnology and Santa Cruz Biotechnology, Santa Cruz, Calif., actin was commercially available from Sigma, the corresponding horseradish peroxidase-conjugated antibody was commercially available from Santa Cruz Biotechnology, enhanced chemiluminescence reagent was commercially available from Millipore Inc. (Millipore, Billerica, Mass.). The signal intensity of autoradiogram was quantified using the UN-SCAN-IT software (Silk Scientific, Orem, Utah), and relative intensity of each sample was normalized by the corresponding actin intensity. […] Endogenous phospho-SMAD1/5 was detected with western blot analysis.
(§2) The effect of STIP1 polypeptide 520-543 on HSP90 function was evaluated using ovarian cancer cell line (MDAH2774) and endometrial cancer cell line (ARK2). […]

phosphor-STAT3 = assay: Western blot of phospho-STAT3 in cancer cells (FIG. 15A); type: cell-based; conditions: MDAH2774 and ARK2, forty-eight hours, various concentrations (FIG. 15A)
Protocol: as §1, §2

Bcl-XL = assay: Western blot of Bcl-XL protein (FIG. 15B); type: cell-based; conditions: western blot FIG. 15B
Protocol: Cell lysates were prepared with a RIPA buffer (150 mM NaCl, 20 mM Tris-Cl pH7.5, 1% Triton X-100, 1% NP40, 0.1% SDS, 0.5% deoxycholate) containing freshly added proteinase and phosphatase inhibitors (Bionovas, Toronto). Protein concentration was measured using the Bradford method. Fifty μg of each sample was electrophoresed in 10% SDS-polyacrylamide gels, and transferred to nitrocellulose membranes. STIP1 antibody was commercially available from Abnova Biotechnology and Santa Cruz Biotechnology, Santa Cruz, Calif., actin was commercially available from Sigma, the corresponding horseradish peroxidase-conjugated antibody was commercially available from Santa Cruz Biotechnology, enhanced chemiluminescence reagent was commercially available from Millipore Inc. (Millipore, Billerica, Mass.). The signal intensity of autoradiogram was quantified using the UN-SCAN-IT software (Silk Scientific, Orem, Utah), and relative intensity of each sample was normalized by the corresponding actin intensity. For antibody neutralization assay, cancer cells were cultured in serum-free medium for 24 h, and treated with rhSTIP1 for another 24 h in the presence or absence of the STIP1 monoclonal antibody, which were pre-incubated at 37° C. for 1 h. Endogenous phospho-SMAD1/5 was detected with western blot analysis.

CC[C@H](C)[C@H](NC(=O)[C@H](C)NC(=O)[C@@H](NC(=O)[C@H](CC(C)C)NC(=O)CNC(=O)[C@@H](NC(=O)[C@H](CC(=O)O)NC(=O)[C@H](CCSC)NC(=O)[C@H](CC(C)C)NC(=O)[C@H](CCCCN)NC(=O)[C@H](CCC(N)=O)NC(=O)[C@@H](NC(=O)[C@H](CCCCN)NC(=O)[C@H](CCC(N)=O)NC(=O)[C@H](C)NC(=O)[C@@H](NC(=O)[C@@H](NC(=O)[C@@H]1CCCN1C(=O)[C@H](CC(N)=O)NC(=O)[C@H](CCCCN)NC(=O)[C@H](CC(C)C)NC(=O)[C@H](Cc1c[nH]cn1)NC(=O)[C@@H](N)CCC(=O)O)C(C)C)[C@@H](C)CC)[C@@H](C)CC)C(C)C)[C@@H](C)CC)C(=O)N[C@@H](CCCNC(=N)N)C(=O)O [STIP1 polypeptide 520-543]
Original O.D ([1]; MTT, MDAH2774, peptide 25 uM, negative control 0.15): 0.15 | Normalized O.D ([1]; MTT, MDAH2774, peptide 25 uM, negative control = 1): 1.02 | Normalized O.D ([1]; MTT, MDAH2774, peptide 150 uM): 0.49 | Original O.D ([1]; MTT, MDAH2774, peptide 150 uM): 0.10 | Cell viability (%) ([1]; MTT, MDAH2774, peptide 200 uM): 28.64% | Normalized O.D ([1]; MTT, MDAH2774, peptide 200 uM): 0.29 | Original O.D ([1]; MTT, MDAH2774, peptide 200 uM): 0.09 | cancer cell viability (in words, FIG. 10B and Table 2) ([1]; MTT, MDAH2774, transfected peptides): suppresses cancer cell viability in a dose-dependent fashion | Cell viability (%) ([1]; human, 48 h, 150 uM): 49.03% | affinity to STIP1 antibody (STIP1 antibody): highest affinity | neutralization of STIP1 antibody binding to rhSTIP1 [2]: neutralized the binding of STIP1 antibody to rhSTIP1 in a dose dependent fashion | binding ability of STIP1 to HSP90 [3]: reduced | size of the tumor mass [4]: less than that of the control group | intracellular level of JAK2 (JAK2; MDAH2774 and ARK2, forty-eight hours, various concentrations (FIG. 15A)): decreased in dose dependent manner | JAK2 protein (JAK2; western blot FIG. 15B): down-regulated | intracellular level of phosphor-STAT3 (phosphor-STAT3): decreased in dose dependent manner | Bcl-XL protein (Bcl-XL): down-regulated
